Test results from patent US6440987B1, “Antipruritic” (Toray Industries, Inc., priority 1996, dated 2002).

How the values were obtained:
[1] = tested on: scratching behavior induced by Compound 48/80; test: Scratching behavior induced by intradermal Compound 48/80 in ddY mice; format: in vivo; settings: s.c. 30 minutes before Compound 48/80 (100 μg/site), dose mg/kg per compound: 2 1.0, 3 0.0057, 5 0.016, 6 0.005, 7 0.005, 8 0.01, 9 1.8, 10 0.46, 11 0.0018, 12 0.07, 13 0.07, 14 0.31, 15 1.88, 16 0.0046, 17 0.0066, 18 0.03, 19 0.03, 20 0.006, 21 0.0003, 22 1.2, 23 0.0069
[2] = tested on: scratching behavior induced by nor-BNI; test: Scratching behavior induced by subcutaneous nor-BNI in ddY mice; format: in vivo; settings: i.p. 30 minutes before s.c. nor-BNI, counted over 60 minutes, U-50488H 1, 3 or 10 mg/kg, chlorophenylamine 0.3, 1.0 or 3.0 mg/kg

| SMILES | Inhibition (%) of scratching behavior [1] [%] | Number of scratching behavior induced by nor-BNI (FIG. 1, in words) [2] |
| --- | --- | --- |
| CN(C(=O)Cc1cccc2occc12)[C@H]1CC[C@@]2(CCCO2)C[C@@H]1N1CCCC1 | 46 |  |
| CN(C(=O)Cc1ccc(Cl)c(Cl)c1)[C@@H]1CCCC[C@H]1N1CCCC1 (relative stereo) |  | decreased significantly |
| CN(C(=O)Cc1cccc2sccc12)[C@H]1CCCC[C@@H]1N1CCCC1 | 70 |  |
